Values of other authors in US20060153844A1, “Methods to trigger, maintain and manipulate immune responses by targeted administration of biological response modifiers into lymphoid organs” (priority 2004, published 2006).

Conditions: 270 patients; cited from earlier work

For “IL-2: co-stimulatory cytokine, the major T cell growth hormone”, the Infections is given as 15 % of patients, the “adult respiratory distress syndrome” value is given as 4 % of patients and the “died from treatment-related toxicity” value is given as 2.2 % of the 270 patients. For the same substance, the hypotension was 64 % of patients, the life threatening sepsis was 3 % of the patients and the “respiratory failure, coma” value was 1 % of patients. The supraventricular tachycardia was 17 % of patients.
